The values below are quoted from earlier work in patent US20160175296A1, “Method of producing uniform buprenorphine-containing formulations” (ARx, LLC, priority 2014, published 2016).

The conditions of the data set: reportedly, by reference.

Regarding Buprenorphine HCl, the aqueous solubility is 17 mg/mL.

As a reminder, the aqueous solubility is how much of the substance goes into solution per volume.
